For the test, the target named is IRAK4 (Homo sapiens (Human), UniProt Q9NWZ3). Nature of the test: IRAK4 Inhibition Assay. Format: biochemical. The conditions noted are these: ATP 500 μM; IRAK4 0.6 nM; 60 min at room temperature. As to the method: IRAK4 Inhibition Assay The assays were performed in U-bottom 384-well plates. […] The reaction was initiated by the combination of IRAK4 with substrates and test compounds. The reaction mixture was incubated at room temperature for 60 min. and terminated by adding 45 μL of 35 mM EDTA to each sample.

Protein sequences, listed by entry. Tags and fused reporters are not part of them.
UniProt Q9NWZ3, whole entry, species assumed: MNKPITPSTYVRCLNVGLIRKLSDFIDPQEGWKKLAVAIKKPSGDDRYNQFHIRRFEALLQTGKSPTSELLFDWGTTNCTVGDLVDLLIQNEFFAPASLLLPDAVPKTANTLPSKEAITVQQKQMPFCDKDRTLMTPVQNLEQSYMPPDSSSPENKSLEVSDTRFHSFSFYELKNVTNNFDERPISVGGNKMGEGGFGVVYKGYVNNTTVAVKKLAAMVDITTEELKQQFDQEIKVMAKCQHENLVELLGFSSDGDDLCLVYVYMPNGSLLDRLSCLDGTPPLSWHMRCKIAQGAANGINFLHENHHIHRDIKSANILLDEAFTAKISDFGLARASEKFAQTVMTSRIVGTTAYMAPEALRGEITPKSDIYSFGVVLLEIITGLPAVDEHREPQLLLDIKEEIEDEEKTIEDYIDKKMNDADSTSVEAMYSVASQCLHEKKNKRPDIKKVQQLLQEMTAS

The source of these data is patent publication US9657009B2, “Heteroaryl substituted pyridyl compounds useful as kinase modulators” (BRISTOL-MYERS SQUIBB COMPANY, priority 2012, dated 2017).

SMILES strings stand for the structures.

Consider `COC(C)(C)[C@H](F)CNC(=O)c1cnc(Nc2ncc(C#N)cc2F)cc1NC(C)C` [Example 36], for which the IC50 – broadly, the concentration that gives 50% inhibition – worked out at 3.3 nM.
Next, `CC(C)(O)[C@H](F)CNC(=O)c1cnc(Nc2ncncc2Cl)cc1NC1CCOCC1` [Example 95]: 7.1 nM.
Take `CC(C)(O)[C@H](F)CNC(=O)c1cnc(Nc2ncc(C#N)cc2Cl)cc1Nc1ccc(-n2cccn2)cc1` [Example 168]: the 50% inhibitory concentration (IC50) came to 6.1 nM.
Next, `CC(F)[C@@H](C)Nc1cc(Nc2ncc(C#N)cc2Cl)ncc1C(=O)NC[C@@H](F)C(C)(C)O` (some centres unmarked) [Example 159]: 5.8 nM.
To `CC(C)Nc1cc(Nc2ncncc2Cl)ncc1C(=O)NC[C@@H](F)C(C)(C)O` [Example 52] belongs 6.9 nM.
